{"source": "patent US7018813B2", "about": "(priority 2000, dated 2006)", "origin": "cited, not measured here", "conditions": "cited from earlier work", "note": "Read-outs that look alike come from different tables or passages of the source."}
{"substance": "Barium chloride [BaCl2]", "values": [{"measurement": "solubility in water", "setting": "at 25° C.", "value": 1800, "unit": "mM"}, {"measurement": "solubility in water", "setting": "at 100° C.", "value": 2800, "unit": "mM"}]}
